Data on one substance can be found in patent US20110177162A1.

For test [1], the target named is bovine luteinizing hormone receptor (bovine) (UniProt Q28005). The test can be described thus: cell-based or functional assay.
Test [2] concerns the target rat luteinizing hormone receptor (rat) (UniProt P16235). The test can be described thus: cell-based or functional assay.

In turn, “bovine luteinizing hormone (from UniProt P01217 25-120; P04651 21-141) (ligand)” showed an increase in intracellular cAMP-level, 1 hour post-induction with 500 ng/ml bLH, HEK293T transiently expressing bLHR in test [1] of 12 fold. In test [2], this substance displayed a PCRE controlled luciferase expression, 6 h post-induction with 500 ng/ml bLH, HEK293T transiently expressing rLHR of 9.9 fold; a PCRE controlled luciferase expression, stable rLHR clone 6 (CK04), 500 ng/ml bLH of 17 fold; a PCRE dependent SEAP expression of encapsulated CK04 cells, 60 hours post-induction, LH-surge dose of bLH compared to 100 ng/ml of 2.3 fold; a PCRE dependent SEAP production, rLHR-expressing cells relative to bLHR-expressing cells, 500 ng/mL bLH of 3 fold. Moreover, in test [2], the cellulase activity in supernatant, CK04 cells transfected with pCK71 (PCRE-cellulase), 48 h post-induction turned out to be 8.4 fold; the increase in intracellular cAMP-level, 1 hour post-induction with 500 ng/ml bLH, HEK293T transiently expressing rLHR stood at 29 fold; the rate of disrupted CS/pDADMAC capsules holding CK04 cells with pCK71, 24 hours post-induction with 500 ng/ml bLH came out at 98%; the rate of spontaneously collapsed capsules holding CK04 cells with pCK71, without bLH (baseline) came out at 6%.
